# Measurements published in patent US7129351B2, “Pyrimido compounds having antiproliferative activity” (Hoffmann-La Roche Inc., priority 2002, dated 2006).
# Amino acid sequences for entries named in this document (tags omitted).
# UniProt P12931, whole entry: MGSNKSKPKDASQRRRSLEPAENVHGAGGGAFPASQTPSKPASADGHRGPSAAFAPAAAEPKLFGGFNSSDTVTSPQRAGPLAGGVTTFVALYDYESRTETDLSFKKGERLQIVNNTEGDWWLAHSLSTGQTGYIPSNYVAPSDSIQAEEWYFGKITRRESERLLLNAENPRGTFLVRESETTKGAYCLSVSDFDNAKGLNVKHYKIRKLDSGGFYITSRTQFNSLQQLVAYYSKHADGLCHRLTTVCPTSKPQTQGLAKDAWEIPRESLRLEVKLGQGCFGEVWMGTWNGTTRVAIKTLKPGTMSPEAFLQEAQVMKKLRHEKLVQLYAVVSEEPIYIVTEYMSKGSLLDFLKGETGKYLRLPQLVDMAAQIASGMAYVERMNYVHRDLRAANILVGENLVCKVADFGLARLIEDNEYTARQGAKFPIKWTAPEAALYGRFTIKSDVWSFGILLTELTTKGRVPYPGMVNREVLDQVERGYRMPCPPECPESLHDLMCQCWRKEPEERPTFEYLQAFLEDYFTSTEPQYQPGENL
# Molecular target: Src (p60^c-src) (Homo sapiens, UniProt P12931)
# Test: SRC-Inhibitor-Assay (homogenous time-resolved fluorescence kinase assay)
# Conditions: read-out: IC50 (μM) - Enzyme Inhibition Assay, Src; ATP 5 μM; enzyme 2.5 U/mL; pre-incubated 15 min at 15° C.
# Text: The activity of the compounds according to this invention as inhibitors for the src-family tyrosine kinases was shown by using the following assay.
# SRC-Inhibitor-Assay Parameters:
# whereby both peptides were synthesized by an optimized solid phase peptide synthesis protocol (Merrifield (1962) Fed. Proc. Fed. Amer. Soc Exp. Biol. 21, 412) on an Zinsser SMP350 peptide synthesizer. […] The identity was proven by MALDI mass spectroscopy [2720.0]. • Enzymes: Upstate Lck (p56^lck, active), Upstate Src (p60^c-src, partially purified) were purchased from UBI. • Homogenous, time-resolved Fluorescence Assay: Reader: Perkin Elmer, Wallac Viktor 1420-040 multilabel counter; Liquid handling system: Beckman Coulter, Biomek 2000. • ATP, Tween 20, HEPES were purchased from Roche Molecular Biochemicals, MgCl2 and MnCl2 were purchased from Merck Eurolab, TCEP was purchased from Pierce, 384 Well low volume fluorescence plates was purchased from Falcon. […]
# At first the enzyme is pre-incubated for 15 min. at 15° C. in aqueous solution with corresponding amounts of inhibitors according to this invention. […] The proceeding of this reaction is immediately monitored using time resolved fluorescence spectroscopy in a suitable well plate reader. […]
smiles,measurement,value
"CCN(CC)CCOc1ccc(Nc2ncc3c(n2)N(C)C(=O)N(c2ccccc2Br)C3C)cc1 (single isomer, unassigned)",IC50,< 1 µM
